Source: BindingDB's records for PubMed 10773045 (Wake Forest University, 2000)
Values joined by “and” are separate entries in the source; they are usually repeats but may differ in a detail not shown here. Identical values can stand only once.

The chains behind the UniProt entries cited, without tags or fusion partners.
UniProt P23977, whole entry: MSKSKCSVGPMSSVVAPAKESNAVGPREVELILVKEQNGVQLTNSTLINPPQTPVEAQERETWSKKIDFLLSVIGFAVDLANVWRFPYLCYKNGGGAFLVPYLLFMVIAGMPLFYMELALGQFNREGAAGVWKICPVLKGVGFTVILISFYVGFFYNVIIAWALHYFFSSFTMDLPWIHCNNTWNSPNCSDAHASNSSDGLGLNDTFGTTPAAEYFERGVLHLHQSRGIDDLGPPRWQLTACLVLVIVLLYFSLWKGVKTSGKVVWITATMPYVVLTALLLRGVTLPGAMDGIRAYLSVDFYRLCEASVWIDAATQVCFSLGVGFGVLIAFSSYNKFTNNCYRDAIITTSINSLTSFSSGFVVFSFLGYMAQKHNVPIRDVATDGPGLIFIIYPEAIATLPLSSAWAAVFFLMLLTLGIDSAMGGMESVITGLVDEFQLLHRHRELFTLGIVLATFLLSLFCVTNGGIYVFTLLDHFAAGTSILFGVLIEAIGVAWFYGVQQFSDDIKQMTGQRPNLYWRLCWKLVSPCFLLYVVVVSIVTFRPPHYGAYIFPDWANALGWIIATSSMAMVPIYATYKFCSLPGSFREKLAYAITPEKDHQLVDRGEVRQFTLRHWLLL

Target: Sodium-dependent dopamine transporter (Rattus norvegicus, UniProt P23977)

`CNCCC(Oc1ccccc1OC)c1ccccc1` (stereo unspecified) [3-(2-methoxyphenoxy)-N-methyl-3-phenylpropan-1-amine] was tested, and the Ki was 334 nM and 378 nM and 433 nM.
